Some of the results follow. Entries with a potency or affinity are not part of this list. Activity calls are given as the source filed them.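 Rule for the calls: active = fold induction of absorbance versus untreated yeast above a set limit, then at least 30% activation at any dose in follow-up; inconclusive = repeats straddling the limit, or above it without dose testing; inactive = fold induction below the set limit.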
Test: enhancers of respiration in Yfh1-depleted yeast, dose response, Friedreich's ataxia, plus single-dose screen (AID 1465)
Settings: S. cerevisiae Yfh1-off respiration, WST-1 reduction, 72 h; at 50 µM; stronger effect = higher value

Structure (SMILES)	fold induction
C(Cc1nn[nH]n1)Cc1nn[nH]n1	inactive: 1.05
O=C(OC1CN2CCC1CC2)c1cccc(Cl)c1 (centres undefined)	inactive: 1.02
CC(C)C(=O)NC(Sc1ccccc1)C(Cl)(Cl)Cl (centres undefined)	inactive: 0.76
O=P(Nc1nccs1)(c1ccccc1)c1ccccc1	inactive: 1.04
c1nnnn1CCn1cnnn1	inactive: 1.02
CCOc1ccc(C2=NCC(CBr)S2)cc1 (centres undefined)	inactive: 1.18
O=P1(Nc2nc3ccc(Cl)cc3s2)COc2ccccc2O1 (centres undefined)	inactive: 1.2
CC(C)(C)C(=O)NC(Sc1ccccc1)C(Cl)(Cl)Cl (centres undefined)	inactive: 0.8
C[C@@H]1C=CCP(=O)(Oc2ccccc2)O1 (some centres undefined)	inactive: 1.04
C[C@H]1OP(=O)(Oc2ccccc2)C[C@@H]2O[C@@H]21 (some centres undefined)	inactive: 1.08
CC(=O)Nc1ccc(Oc2c([N+](=O)[O-])cc([N+](=O)[O-])cc2[N+](=O)[O-])cc1	inactive: 1.15
CC(=O)Nc1ccc([As](=O)(O)O)c(O)c1	inactive: 1.08
CCNC(=S)/N=C(\N)N[N+](=O)[O-]	inactive: 1.02
O=C(NC1CCS(=O)(=O)C1)NP(=S)(Oc1ccccc1)Oc1ccccc1 (centres undefined)	inactive: 0.96
CCOC(=O)NC(Sc1ccccc1)C(Cl)(Cl)Cl (centres undefined)	inactive: 0.86
Cc1ccc(NP(=O)(Oc2cccc(C)c2)Oc2cccc(C)c2)nc1	inactive: 1.07
c1ccc(-c2nn[nH]n2)c(-c2nn[nH]n2)c1	inactive: 0.99
Cc1ccc(OP(=O)(Nc2ccccn2)Oc2ccc(C)cc2)cc1	inactive: 1
CC(=O)NC(SC(=S)N(CC(C)C)CC(C)C)C(Cl)(Cl)Cl (centres undefined)	inactive: 0.96
COC(=O)c1cc2c(s1)N=C(c1ccccc1)N(C)P2(=O)N1CCOCC1 (centres undefined)	inactive: 1.15
CCC(=O)N1C2C3N(C(=O)CC)C1C1N(C(=O)CC)C(C(N1C(=O)CC)N3C(=O)CC)N2C(=O)CC	inactive: 0.97
CN(C)C(=O)Oc1noc2ccccc12	inactive: 1.04
O=c1c2cc([N+](=O)[O-])ccc2[nH]c2c([N+](=O)[O-])cc([N+](=O)[O-])cc12	inactive: 0.85
Cc1ccccc1OP(=O)(Nc1ccccn1)Oc1ccccc1C	inactive: 0.98

Source: PubChem BioAssay AID1465 (SRMLSC, 2008)
